Experimental findings from paper PMC4216168, “Ligand Binding and Activation of PPARγ by Firemaster® 550: Effects on Adipogenesis and Osteogenesis in Vitro” (Environmental Health Perspectives, 2014) are described below.

Amino acid sequences for entries named in this document (tags omitted). Residues count along the entry.
UniProt P37231, 29-505: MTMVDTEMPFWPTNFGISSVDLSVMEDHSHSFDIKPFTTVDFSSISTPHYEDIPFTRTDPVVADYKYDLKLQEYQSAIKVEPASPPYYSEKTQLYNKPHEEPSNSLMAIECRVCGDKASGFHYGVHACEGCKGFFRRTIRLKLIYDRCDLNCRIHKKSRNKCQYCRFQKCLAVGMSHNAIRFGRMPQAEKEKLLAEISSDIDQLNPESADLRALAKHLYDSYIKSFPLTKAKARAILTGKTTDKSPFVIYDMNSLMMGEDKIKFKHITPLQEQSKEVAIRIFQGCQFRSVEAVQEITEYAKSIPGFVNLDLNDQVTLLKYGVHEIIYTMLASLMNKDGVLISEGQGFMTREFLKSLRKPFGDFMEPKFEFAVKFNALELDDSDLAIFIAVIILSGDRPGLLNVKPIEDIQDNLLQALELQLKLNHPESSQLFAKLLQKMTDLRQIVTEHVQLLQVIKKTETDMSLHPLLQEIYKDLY

This assay has as its target human PPARγ1 (Homo sapiens, UniProt P37231). Description: PPRE-luciferase reporter assay in Cos-7 cells transfected with human PPARG1 and RXRA. Type of assay: cell-based. Conditions: fold-change from DN-control, 24 hr; rosiglitazone at 1 μM. From the text: Reporter assays. Cos-7 cells were transiently transfected with vectors containing human PPARG1 (provided by V.K. Chatterjee, University of Cambridge, Cambridge, UK) ([Gurnell et al. 2000]) and human RXRA (plasmid 8882; Addgene, Cambridge, MA) ([Tontonoz et al. 1994]), with PPRE x3-TK-luc (plasmid 1015; Addgene) ([Kim et al. 1998]) and CMV-eGFP reporter constructs using Lipofectamine2000 (Invitrogen). Cultures were cotransfected with either pcDNA3 (Invitrogen) or dominant negative human PPARG (PPARγ-DN; provided by V.K. Chatterjee). […] After 24 hr incubation, cells were lysed in Glo Lysis Buffer and mixed with Bright Glo reagent (both from Promega, Madison, WI). […] Luminescence was normalized by GFP (green fluorescent protein) fluorescence in the same well. The normalized luminescence for each well was then divided by the normalized luminescence measured in control DN-PPARγ–transfected wells to determine the fold-change from DN-control.
(In general: Reporter assays use an easily measured gene product as a stand-in for the process of interest.)

SMILES strings stand for the structures. Where “and” joins values, the source holds several entries; their conditions need not be identical. Equal entries are not always repeated.

Consider `CN(CCOc1ccc(CC2SC(=O)NC2=O)cc1)c1ccccn1` (stereo not shown) [rosiglitazone, reference compound], for which the “maximal PPARγ-driven reporter activity” value is 11.3 ± 0.9 fold and 11.3 ± 0.6 fold.
